# From publication PMC4124904 (British journal of haematology, 2010)
# Experiment: Pharmacokinetic analysis of vorinostat and two metabolites
# Type: in vivo, human
# Settings: with idarubicin
# Procedure, shortened: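 Relapsed/refractory leukaemia patients self-dosed oral HDAC inhibitor TID for 14 days (arm A) or 3 days (arm B), 3+3 escalation from 100 mg, with anthracycline 12 mg/m2 IV over 30 min on days 1–3. Blood clotted 20–30 min at 4°C, spun 2,000 × g 15 min at 4°C, serum stored at -70°C. Parent, glucuronide and acid metabolites (metabolites in first 19 patients) measured by validated LC-ESI-MS/MS. Dosing times unrecorded, so only Cmax and Tmax were derived.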
substance,measurement,setting,value
vorinostat-glucuronide,Glucuronide metabolite Mean Tmax,vorinostat 100 mg TID for 3 days oral,2.2 h
same,Glucuronide metabolite Mean Tmax,vorinostat 100 mg TID for 14 days oral,2.8 h
same,Glucuronide metabolite Mean Tmax,vorinostat 200 mg TID for 3 days oral,2.3 h
same,Glucuronide metabolite Mean Tmax,vorinostat 300 mg TID for 3 days oral,2.5 h
same,Glucuronide metabolite Mean Tmax,"vorinostat 400 mg TID for 3 days oral, metabolites measured in only 1 patient",1 h
